This assay addresses NA of A/Washington/01/2007 A(H3N2), WT (Influenza A virus, UniProt A7UPN3). The assay can be described thus: biochemical.

For `CCOC(=O)C1=C[C@@H](OC(CC)CC)[C@H](NC(C)=O)[C@@H](N)C1` [Oseltamivir, oseltamivir], 0.3 nM corresponded to half-maximal inhibition (IC50).
